Data published in US12486292B2, “Prodrug platform useful to deliver amines, amides and phenols” (Changchun Changcheng Pharmaceutical Technology Co., LTD, priority 2019, dated 2025).

Columns and labels:
[1] = Mouse pharmacokinetic study 1: liver exposure of dFdC and dFdU at 2 h
[2] = Mouse pharmacokinetic study 1: plasma PK of prodrug and dFdC; assay type: in vivo, C57BL/6 mice; conditions: i.v. or PO administration
Method: C57BL/6 mice used in this experiment were purchased from Beijing Vital River Laboratory Animal Technology Co., Ltd., and male mice with a body weight in the range of 16-19 g were tested for administration. The animals were housed with appropriate air conditions (temperature: 20-25° C.; humidity: 40%-70%; light/dark cycle: 12 hours), and were provided with the food and water ad lib.
The solution media for IV administration were DMSO:30% solutol HS-15:saline=10:10:80 (v/v/v). Test substances were dissolved in the media to obtain a clear solution, and filtered through PTFE to get a colorless clear solution for IV administration.
The solution media for oral administration were DMSO:30% solutol HS-15:saline=10:10:80 (v/v/v). Test substances were dissolved in the media to obtain a clear solution.
The animals were randomly divided into groups. All animals were fasted overnight (12-15 hours) before administration (but provided with water ad lib) and provided with foods 4 hours after the administration. […]
The pharmacokinetic (PK) profile of liver-targeted gemcitabine (dFdC) prodrug according to formula (I)/formula (A) (i.e., Compound 4) was evaluated in male C57BL/C mice following intravenous administration (i.v.) at an equivalent dose to 15 mg/kg of Gemcitabine or following oral administration (PO or i.g.) at a dose of 80 mg/kg. […]

O=c1nc(N[P@@]2(=O)OCC[C@@H](c3cccc(Cl)c3)O2)ccn1[C@@H]1O[C@H](CO)[C@@H](O)C1(F)F
dFdC levels in the liver ([1]; PO 80 mg/kg): significant levels of dFdC | dFdU levels in the liver compared with Gemcitabine i.v. administration group ([1]; either i.v. or PO): much less | dFdC levels in the liver ([1]; i.v., Gemcitabine 15 mg/kg or Compound 4 at equivalent dose): significant levels of dFdC | exposure of the prodrug in the systemic circulation [2]: significant exposure | release of dFdC from the prodrug in vivo (detection in the circulation) [2]: dFdC was released from the prodrug in vivo
